# Source: patent US10919869B2, “Thiazole derivative and applications” (EAST CHINA UNIVERSITY OF SCIENCE AND TECHNOLOGY, priority 2016, dated 2021)
# The chains behind the UniProt entries cited, without tags or fusion partners. Where a name states a change or a piece, a line headed by the entry shows the natural chain unless it says otherwise.
# UniProt Q02127: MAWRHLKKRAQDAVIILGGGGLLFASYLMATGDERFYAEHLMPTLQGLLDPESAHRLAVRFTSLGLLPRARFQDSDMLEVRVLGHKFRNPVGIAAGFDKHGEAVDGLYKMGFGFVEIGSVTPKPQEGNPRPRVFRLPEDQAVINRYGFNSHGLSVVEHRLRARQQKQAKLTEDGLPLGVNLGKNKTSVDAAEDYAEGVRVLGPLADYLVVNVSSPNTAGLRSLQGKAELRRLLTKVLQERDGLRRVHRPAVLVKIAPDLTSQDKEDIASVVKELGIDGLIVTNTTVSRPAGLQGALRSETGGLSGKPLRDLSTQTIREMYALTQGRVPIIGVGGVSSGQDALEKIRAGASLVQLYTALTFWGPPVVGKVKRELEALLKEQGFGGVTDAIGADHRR
# Target: hsDHODH (Homo sapiens (Human), UniProt Q02127)
# Test: Activity test at enzyme level: DHODH inhibition, DCIP absorbance at 600 nm
# Type: biochemical
# Settings: pharmaceutically acceptable esters (prodrugs of A and B series)
# Experimental: Culture and Purification of hsDHODH Protein
# The correctly sequenced recombinant plasmid pET-19b-DHODH was transformed into competent E. coli BL21 (DE3), and cultured on LB plate containing ampicillin. Colonies were randomly selected, inoculated into LB medium containing […], and incubate overnight at 37° C., 230 rpm. The cells were inoculated at a ratio of 1:200 in 500 mL of LB medium containing […] and expanded at 37° C., 230 rpm. When the OD value of the cells reached 0.8-1, IPTG was added into the medium to a final concentration of IPDG of 0.5 mM, and expression was induced overnight at 25° C. […]
# Principles of activity test at enzyme level: firstly, dihydroorotate (DHO) is oxidatively dehydrogenated by DHODH to form orotic acid (Orotate, OA), accompanied by reduction of Flavin mononucleotide (FMN) into reduced flavin mononucleotide (FMNH2) by accepting 2H+ and 2e−, then coenzyme Q (CoQ) as hydrogen acceptor accepting electron and proton from FMNH2 is reduced into reduced coenzyme Q (CoQH2), reduced coenzyme Q transfers electrons to a chromogenic substrate, […] (DCIP), and finally DCIP was reduced. […] The degree to which the substrate DHO is oxidized can be judged based on the degree of decrease in absorbance. […]
smiles,measurement,value
CN(C)C(=O)c1ccccc1/C=N/N(C)c1nc(-c2ccccc2Cl)cs1 [Compound B12],IC50,> 50 µM
